Experimental data published in PubChem BioAssay AID602229 (The Scripps Research Institute Molecular Screening Center, 2012).
Only a part is listed here, and it is no random draw. Calls of active or inactive are those of the source.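 Rule for the calls: active = inhibition above the mean of all tested compounds plus 3 SD (cut at about 70% in these data); inactive = the rest.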

Chains of the proteins cited; added tags and fusions are not shown.
UniProt Q9Y5X4, whole entry: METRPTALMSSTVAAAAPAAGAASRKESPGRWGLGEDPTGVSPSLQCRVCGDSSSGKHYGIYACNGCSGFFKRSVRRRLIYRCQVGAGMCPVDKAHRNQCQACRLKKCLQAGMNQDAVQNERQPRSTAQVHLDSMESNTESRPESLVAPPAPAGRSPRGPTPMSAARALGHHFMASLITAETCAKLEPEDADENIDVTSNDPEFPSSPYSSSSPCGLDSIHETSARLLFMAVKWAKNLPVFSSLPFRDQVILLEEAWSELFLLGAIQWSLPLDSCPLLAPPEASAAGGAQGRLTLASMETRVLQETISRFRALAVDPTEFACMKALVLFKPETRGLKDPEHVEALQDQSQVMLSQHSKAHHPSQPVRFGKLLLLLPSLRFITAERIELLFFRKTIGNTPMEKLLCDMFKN

The compounds below were run against Photoreceptor-specific nuclear receptor (Homo sapiens) (UniProt Q9Y5X4) (assay: NR2E3 agonists in two-hybrid cells, primary screen, cell-based, luminescence, CHO-S, Gal4-NCOR/VP16-NR2E3 (AID 602229;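 note: 0% = DMSO with NR2E3 transfected cells and 100% = cells lacking NR2E3 construct; higher means lower luciferase signal from less NR2E3 corepressor binding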)). Settings: luciferase, at 3.98 µM, hits give high values.
For `CCC(=O)N(c1ccccc1)C1(COC)CCN(CCc2cccs2)CC1`, the inhibition of corepressor binding was inactive: -1.99%. For `CCC(=O)N(c1ccccc1)C1(COC)CCN(CCn2nnn(CC)c2=O)CC1`, the inhibition of corepressor binding was inactive: -20.4%.
